Source: publication PMC3257419 (Journal of Medicinal Chemistry, 2011)

Legend:
Wistar albino rats [1] = details: CPP-115 20 mg/kg vs 0.5-1 mg/kg; vigabatrin 200 mg/kg vs 100-300 mg/kg
Wistar albino rats [2] = details: determined empirically from previously published results; cited from earlier work

C=CC(N)CCC(=O)O (centres unmarked) [Vigabatrin, vigabatrin]
safety factor of retinal toxicity dose over the treatment dose (Wistar albino rats [1]): about 1 fold | maximum tolerated dose (MTD) (Wistar albino rats [2]): 200 mg/kg
